This is a sample that favours compounds with a hit; in the whole collection about 3.7% have one here.
Nrf2 ARE act: activates Nrf2 signaling; AREc32 ARE-luciferase reporter (MCF7-derived line), luminescence, 24 h; Potency, µM (highest dose often 46.1 µM), most hits filed as activators; actives 0.31% (n = 410,000); AID 624171; note: nearly all actives have a fitted effect of over 65% in size
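Luminescent ARE reporter assay in AREc32_Fluc cells: overnight plating at 37 deg C, 24 hr compound incubation, Steady-Glo added, 30 min RT before reading.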
IL-2 act: IL-2 activation; activation, % (series mostly up to about 46 µM); IL-2 activation reporter assay, cell-based qHTS; stimulated with anti-CD3/CD4/CD28 beads; in transgenic mouse T cells; actives 0.065% (n = 360,000); in the data active = activation above about 50%; inconclusive = mostly about 30% to 49%
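Unstimulated transgenic mouse T cells preincubated 60 min with compound, then stimulated with anti-CD3/anti-CD4-coated beads plus anti-CD28 for 18 h at 37 degrees C. IL-2 response read as EGFP and DsRed fluorescence by plate cytometry.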
miR-21 FLuc: raises the signal of a miR-21 reporter | AID 2288 | 340,000 tested, under 10 active | Potency, µM (series often up to 38.3 µM) | HeLa miR-21 FLuc reporter, luciferase, 48 h; active = well fitted rising curve with a large enough effect; inconclusive = small, poorly fitted or top-dose-only effect; inactive = no such curve, though single readings can be large or run the other way;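 further: miR-21 action dims this reporter so a rising signal means less miR-21 action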
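Compounds were titrated across several concentrations (up to approximately 40 uM) and incubated 48 hours with HeLa miR-21-FLuc reporter cells (miR-21 target sequence downstream of FLuc, endogenous miR-21). Readout was firefly luciferase luminescence after lytic detection reagent.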
Nrf2 block: blocks Nrf2 signaling; A549 ARE-Fluc reporter, luciferase luminescence, 18-24 h; Potency, µM (highest dose often 46 µM), actives largely listed as inhibitors; actives 2.1% (n = 360,000); note: nearly all actives have a fitted effect of over 60% in size
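Two sequential reads on A549 ARE_Fluc cells exposed to compound for 18-24 h: a CellTiter-Fluor fluorescence read for viability, then a luciferase luminescence read for Nrf2/ARE activity.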
ClpP mod: qHTS Assay for Activators of ClpP. Potency, µM (highest dose often 57.5 µM). purified B. subtilis ClpP, FRET peptide cleavage, 20 min. actives 1.9% (n = 340,000). ATP-dependent Clp protease proteolytic subunit (Bacillus subtilis (strain 168)), P80244. AID 651965, 2013; active = well fitted falling curve with a large enough effect; inconclusive = small, poorly fitted or top-dose-only effect; inactive = no such curve, though single readings can be large or run the other way; note: the source files actives as falling curves though it sought activators and does not explain the sign; nearly all actives have a fitted effect of over 65% in size
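ClpP 10 microg/mL final, pH 8 Tris/KCl buffer with BSA, glycerol, Tween-20; compound pinned in; FRET-FV substrate; RT 20 min; Ex320/Em430; ΔFRET vs ADEP 5.8 microM, DMSO, no enzyme.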
A549 viability: kills or reduces viability of A549 cells in Nrf2 counter-screen; A549 ARE-Fluc cells, CellTiter-Fluor viability, 18-24 h; Potency, µM (top dose mostly 46 µM), actives largely listed as inhibitors; actives 0.16% (n = 390,000); AID 504648
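A549 ARE_Fluc cells in 5% FBS OPTI-MEM were exposed to compounds in concentration-response for 18-24 h at 37 deg C. Viability was read by CellTiter-Fluor fluorescence (Ex 405/Em 525) after 30 min, before the luciferase read.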
Numbers stand for hits; n = inactive; u = inconclusive; x = no result given; [ ] = another dose, or the depositor's remark. Unless noted, calls come from the whole dose curve; as a rule, active = well fitted curve in the direction sought with a large enough effect; inconclusive = small, poorly fitted or top-dose-only effect, or another doubt; inactive = no such curve, though single readings can be large; an effect the other way counts as inactive or inconclusive.

The chains behind the UniProt entries cited, without tags or fusion partners.
ATP-dependent Clp protease proteolytic subunit (Bacillus subtilis (strain 168)), P80244, UniProt P80244, whole entry, looked up: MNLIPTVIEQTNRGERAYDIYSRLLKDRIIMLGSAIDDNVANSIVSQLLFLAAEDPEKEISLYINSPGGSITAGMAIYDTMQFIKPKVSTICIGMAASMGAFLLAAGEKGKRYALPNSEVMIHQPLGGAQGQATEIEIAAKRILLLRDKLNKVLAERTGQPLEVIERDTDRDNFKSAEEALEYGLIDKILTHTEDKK

SMILES | Nrf2 ARE act | IL-2 act | miR-21 FLuc | Nrf2 block | ClpP mod | A549 viability
O=c1c2ccccc2sc2nc(CCl)nn12 | n | n | x | n | 16µM | u
Cc1cc(NC(=O)CS(=O)(=O)c2cn(Cc3cccc(Br)c3)c3ccccc23)no1 | n | n | x | x | n | x
Cc1cc(NC(=O)CS(=O)(=O)c2cn(Cc3ccccc3Cl)c3ccccc23)no1 | n | n | n | 26µM | n | n[1.84 µM]
COc1ccc(CCn2c(=N)c(C(=O)NCc3ccco3)cc3c(=O)n4ccccc4nc32)cc1OC | n | n | x | n | n | n
N=c1c(C(=O)NCc2ccco2)cc2c(=O)n3ccccc3nc2n1CCc1ccccc1 | n | n | n | n | 28µM | n
N=c1c(C(=O)NCc2ccco2)cc2c(=O)n3ccccc3nc2n1CC1CCCO1 (stereo not drawn) | n | n | x | n | 28µM | n
c1ccn2c(c1)nc1c2nc2ccccn21 | n | n | n | x | n | n
Cc1c(-c2ccc(Br)cc2)nc2ccccn12 | 4µM | n | n | u | 25µM | n
Clc1c(-c2ccccc2)nc2ccccn12 | 11µM | n | n | u | x | n
Cc1ccc(Cl)cc1NS(=O)(=O)c1ccc(N2CCCCS2(=O)=O)cc1 | n | x | n | x | n | n
COC(=O)c1ccccc1NC(=O)C1(c2cccs2)CCOCC1 | n | x | n | x | n | n
O=C(CCCCCn1c(=O)c2sccc2n(CC(=O)Nc2cccc(Cl)c2)c1=O)NCc1ccc2c(c1)OCO2 | n | x | n | u | u | n
COc1ccc(S(=O)(=O)Nc2ccccc2C(=O)NCc2ccco2)cc1 | n | n | n | n | u | n
COc1ccc(S(=O)(=O)N(Cc2ccccc2)c2ccccc2C(=O)Nc2ccccc2C(=O)NCc2ccco2)cc1 | n[9.22 µM] | n | n | n | 22µM | n
COc1cccc(C2c3c(ncn(-c4ccccc4C#N)c3=N)Oc3ccc4ccccc4c32)c1 (stereo not drawn) | x | x | x | u | x | n
O=C(Nc1cccc([N+](=O)[O-])c1)c1cnccn1 | u | n | n | n | n | n
O=C(Nc1cccc([N+](=O)[O-])c1)c1[nH]ncc1Cl | 5µM | n | n | u | n | n
O=C(CCNc1ccc(Cc2ccncc2)cc1)c1cccc([N+](=O)[O-])c1 | u | n | n | 15µM | x | n
O=C(Nc1cccc([N+](=O)[O-])c1)c1ccncc1 | 11µM | n | n | n | n | n
Cc1ccc(NC(=O)NCCOCCn2c(=O)oc3ccccc32)cc1C | n | x | n | n | n | n
FC(F)(F)c1cc(-c2ccccc2)nc(NC2CCCC2)n1 | n | n | n | u | 32µM | u
COc1ccc(C(=O)c2cn(Cc3cccc(C)c3)c3cc4c(cc3c2=O)OCO4)cc1 | n | x | n | n | n | n
O=C(c1ccccc1NS(=O)(=O)c1ccc(Br)s1)N1CCCC1 | n | n | n | n | 16µM | n
COC(=O)c1ccccc1NC(=O)CSc1nc2ccsc2c(=O)n1CCC(C)C | n | x | n | x | n | n
CC1C[C@@]2(NC(=O)NC2=O)C(C)CN1C (stereo partly drawn) | n | n | n | n | n | n
SMILES | Nrf2 ARE act | IL-2 act | miR-21 FLuc | Nrf2 block | ClpP mod | A549 viability
CC1CC2(NC(=O)NC2=O)C(C)CN1C (stereo not drawn) | n | n | n | n | 25µM | n
CC(=O)c1cccc(NC(=O)/C=C/c2ccc(S(=O)(=O)N3CCOCC3)cc2)c1 | n | n | x | n | n | n
O=C(/C=C/c1ccco1)Nc1cccc(S(=O)(=O)N2CCOCC2)c1 | 5.6µM | n | n | n | n | n
COc1cc(/C=C/C(=O)Nc2cccc(S(=O)(=O)N3CCOCC3)c2)ccc1OCC#N | n | n | x | 15µM | n | n
CN(C)S(=O)(=O)c1cccc(NC(=O)/C=C/c2ccc(S(=O)(=O)N3CCOCC3)cc2)c1 | n | n | x | 23µM | n | n
COc1ccc(/C=C/C(=O)Nc2cccc(S(=O)(=O)N3CCOCC3)c2)cc1OC | n | n | x | u | 28µM | n
